This assay has as its target human TNFα (human, UniProt P01375 77-233). Briefly: cell-based or functional assay.

The chains behind the UniProt entries cited, without tags or fusion partners. Residues count along the entry.
UniProt P01375, 77-233 limits assumed: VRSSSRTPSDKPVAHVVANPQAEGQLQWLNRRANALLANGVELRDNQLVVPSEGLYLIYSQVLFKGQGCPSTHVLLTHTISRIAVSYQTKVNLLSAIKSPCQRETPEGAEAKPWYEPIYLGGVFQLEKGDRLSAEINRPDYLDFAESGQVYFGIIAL

B1: control chimeric antibody (A2 V regions, SEQ. IDs No. 1 and No. 2) (antibody, human IgG1, V domains shown)
VH: EVKLEESGGGLVQPGGSMKLSCVASGFIFSNHWMNWVRQSPEKGLEWVAEIRSKSINSATHYAESVKGRFTISRDDSKSAVYLQMTDLRTEDTGVYYCSRNYYGSTYDYWGQGTTLTVSS
VL: DILLTQSPAILSVSPGERVSFSCRASQFVGSSIHWYQQRTNGSPRLLIKYASESMSGIPSRFSGSGSGTDFTLSINTVESEDIADYYCQQSHSWPFTFGSGTNLEVK
In the case of B1, the “Ratio of Activities compared to Chimeric Antibody (fold difference, WEHI-164 protection assay at 25 ng/ml)” value came out at 1 fold.
